Reference: US20230002352A1, “SULFONAMIDE DERIVATIVES AS CTPS1 INHIBITORS” (Step Pharma S.A.S., priority 2019, published 2023)

Key:
[1] = target: human CTPS1 (Homo sapiens, UniProt P17812); assay: Human CTPS1 enzyme inhibition (ADP-Glo Max assay); settings: read-out: CTPS1 (Human CTPS1 Enzyme Inhibition data grouped by potency range, IC50), Table 24
Procedure: Biological Example 1—Human CTPS1 Enzyme Inhibition
The enzyme inhibitory activities of compounds invented against the target of interest were determined using the ADP-Glo™ Max assay (Promega, UK). Assays for human CTPS1 were performed in 1× assay buffer containing 50 mM Tris, 10 mM MgCl2, 0.01% Tween-20, pH to 8.0 accordingly. Finally, immediately before use, L-cysteine was added to the 1× assay buffer to a final concentration of 2 mM. All reagents are from Sigma-Aldrich unless specified otherwise. Human full length active C-terminal FLAG-Hiss-tag CTPS1 (UniProtKB-P17812, CTPS[1-591]-[…]) was obtained from Proteros biostructures GmbH.
3× human CTPS1 protein was prepared in 1× assay buffer to the final working protein concentration required for the reaction. […] The enzymatic reaction was then initiated by addition of a 2 uL per well volume of a pre-mixed substrate mix (UltraPure ATP from ADP-Glo™ Max kit (0.31 mM), GTP (0.034 mM), UTP (0.48 mM) and L-glutamine (0.186 mM)) and the mixture was incubated for an appropriate amount of time within the determined linear phase of the reaction at 25° C. under sealed plate conditions with constant agitation at 500 revolutions per minute (rpm). […]

[2] = test system: human CTPS1 versus CTPS2; assay: Human CTPS1 versus CTPS2 selectivity assessment by RapidFire/MS analysis; assay type: biochemical; settings: Table 27
Procedure: Biological Example 2—RapidFire/MS-Based Enzyme Selectivity Assays.
Human CTPS1 Versus CTPS2 Selectivity Assessment by RapidFire/MS Analysis.
The enzyme inhibitory activities against each target isoform of interest may be determined for the compounds of the invention using an optimised RapidFire high-throughput mass spectrometry (RF/MS) assay format. RF/MS assays for both human CTPS1 and CTPS2 may be performed in assay buffer consisting of 50 mM HEPES (Merck), 20 mM MgCl2, 5 mM KCl, 1 mM DTT, 0.01% Tween-20, pH to 8.0 accordingly. Human full-length active C-terminal FLAG-His-tag CTPS1 (UniProtKB-P17812, CTPS[1-591]-[…]) may be obtained from Proteros biostructures GmbH. Human full length active C-terminal FLAG-His-Avi tagged CTPS2 (UniProtKB-Q9NRF8, CTPS2 [1-586]-[…]) may be obtained from Harker Bio.
Human CTPS (1 or 2) protein may be prepared in 1× assay buffer to the final working protein concentration required for the reaction. […] Each mixture may be incubated for an appropriate amount of time per isoform within the determined linear phase of the reaction at 25° C. […]
In all cases, the enzyme converts UTP to CTP. […] Readout for data analysis may be calculated as the ratio between the peak area of the product CTP and the internal standard ^13C9-^15N3-CTP. […]
Fold selectivity between CTPS1 and CTPS2 was subsequently calculated according to the following equation: […]

CCOc1cncc(-c2ccc(NC(=O)C3(c4ccnc(NS(=O)(=O)N(C)C)n4)CCOCC3)nc2)n1 was tested, and the IC50 [1] was 100 to 1000 nM and the “Selectivity (fold selectivity between CTPS1 and CTPS2)” value [2] was “+++ (>60 fold (+++))”.
